Our source for the EC50 and IC50 values is patent publication US7410949B2, “Neuropeptide-2 receptor (Y-2R) agonists and uses thereof” (Hoffmann-La Roche Inc., priority 2005, dated 2008).

Chains of the proteins cited; added tags and fusions are not shown. Lines headed by an entry give the natural chain unless they say otherwise; changes in a name come on top.
UniProt P25929, whole entry: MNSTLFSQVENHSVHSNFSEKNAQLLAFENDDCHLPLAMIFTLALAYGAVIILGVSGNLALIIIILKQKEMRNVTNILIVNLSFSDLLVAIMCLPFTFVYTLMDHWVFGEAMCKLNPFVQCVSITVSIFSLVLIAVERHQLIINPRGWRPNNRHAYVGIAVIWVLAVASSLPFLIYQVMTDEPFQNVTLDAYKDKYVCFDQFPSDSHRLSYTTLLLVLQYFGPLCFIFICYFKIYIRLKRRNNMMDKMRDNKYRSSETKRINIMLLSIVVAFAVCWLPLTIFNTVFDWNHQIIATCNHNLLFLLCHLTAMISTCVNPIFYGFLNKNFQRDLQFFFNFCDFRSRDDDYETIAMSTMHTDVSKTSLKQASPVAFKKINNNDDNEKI
UniProt P50391: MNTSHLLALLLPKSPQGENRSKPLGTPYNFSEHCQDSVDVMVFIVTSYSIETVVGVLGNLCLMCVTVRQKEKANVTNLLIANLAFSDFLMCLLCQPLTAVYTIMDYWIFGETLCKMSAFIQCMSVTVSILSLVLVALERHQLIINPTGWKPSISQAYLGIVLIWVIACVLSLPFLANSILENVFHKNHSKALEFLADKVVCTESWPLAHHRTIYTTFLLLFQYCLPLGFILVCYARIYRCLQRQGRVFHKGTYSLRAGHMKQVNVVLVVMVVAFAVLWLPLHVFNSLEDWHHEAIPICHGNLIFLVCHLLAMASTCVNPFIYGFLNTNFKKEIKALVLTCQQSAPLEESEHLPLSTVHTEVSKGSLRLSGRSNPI
UniProt P49146, whole entry: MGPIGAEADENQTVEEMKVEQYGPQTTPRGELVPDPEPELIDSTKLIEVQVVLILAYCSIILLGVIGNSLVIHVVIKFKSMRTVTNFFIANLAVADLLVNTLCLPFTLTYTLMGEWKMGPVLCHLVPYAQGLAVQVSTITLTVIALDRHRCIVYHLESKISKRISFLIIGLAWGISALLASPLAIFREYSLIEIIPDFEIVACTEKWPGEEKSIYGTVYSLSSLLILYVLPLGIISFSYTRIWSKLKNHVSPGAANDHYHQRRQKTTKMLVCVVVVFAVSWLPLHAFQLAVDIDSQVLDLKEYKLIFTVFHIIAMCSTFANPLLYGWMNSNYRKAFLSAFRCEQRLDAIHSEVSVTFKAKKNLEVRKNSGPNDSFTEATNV

Holding throughout (type): cell-based
The target in test [1] is Y1R (Homo sapiens, UniProt P25929). The test is described as follows: FLIPR assay, Y1R. The following applies: read-out: Y1R EC50(nM) FLIPR. On the procedure:
(§1) Loading Buffer (Calcium-3 Assay Kit, Molecular Devices) was prepared by dissolving the contents of one vial (Express Kit) into 1000 ml Hank's Balanced Salt Solution containing 20 mM HEPES and 5 mM probenecid.
(§2) During the incubation, test compounds were prepared at 3.5× the desired concentration in HBSS (20 mM HEPES)/0.05% BSA/1% DMSO and transferred to a 384 well plate for use on FLIPR.
(§3) After incubation, both the cell and compound plates were brought to the FLIPR and 20 μL of the diluted compounds were transferred to the cell plates by the FLIPR. During the assay, fluorescence readings were taken simultaneously from all 384 wells of the cell plate every 1.5 seconds. Five readings were taken to establish a stable baseline, and then 20 μL of sample was rapidly (30 μL/sec) and simultaneously added to each well of the cell plate. The fluorescence was continuously monitored before, during and after sample addition for a total elapsed time of 100 seconds. Responses (increase in peak fluorescence) in each well following addition was determined. The initial fluorescence reading from each well, prior to ligand stimulation, was used as a zero baseline value for the data from that well. The responses are expressed as % of maximal response of the positive control.

Test [2] addresses Y4R (Homo sapiens, UniProt P50391). The test is described as follows: FLIPR assay, Y4R. The following applies: read-out: Y4R EC50(nM) FLIPR. On the procedure:
as §1, §2, §3

The target of test [3] is T1, hNPY2R (Homo sapiens, UniProt P49146). Put plainly: cAMP Agonist Assay in HEK293/hNPY2R cells. The note with it: read-out: Y2R IC50(nM) cAMP, Forskolin 5 μM. Further details: expressed in transfected cells; host or cells: HEK293/hNPY2R (grown under G418 selection). The method, then:
The flask was gently tapped and the cell suspension was pooled. […] The suspension was pooled and counted.
The plates were incubated at 37° C. overnight.
The media and reagents were allowed to come to room temperature.
The cell medium was tapped off with a gentle inversion of the cell plate on a paper towel. 50 μL of stimulation medium was placed per well (each concentration done in four replicates). The plates were incubated at room temperature for 30 min, and the cells were checked under a microscope for toxicity.
20 μL of the lysate was transferred from stimulation plates into the pre-coated antibody plates (384-well) from the Tropix kit. […] The plates were incubated at room temperature while shaking for 1 hour. […] The plates were tapped to dry. […] Signal for 1 sec/well in a Luminometer. (VICTOR-V) was measured.

Test [4] addresses T1, hNPY2R. The test is described as follows: CaFlux Assay (FLIPR), Y2R. The arrangement: expressed in transfected cells; host or cells: HEK-293 cells stably expressing the G protein chimera Gaqi9. The note with it: read-out: Y2R EC50(nM) FLIPR; Hek-293 cells with Gaqi9 and human NPY2 receptor. On the procedure:
Hek-293 cells were stably transfected with the G protein chimera Gaqi9 and the hygromycin-B resistance gene were further transfected with the human NPY2 receptor and G418 antibiotic selection. Following selection in both hygromycin-B and G418, individual clones were assayed for their response to PYY. The transfected cells were cultured in DMEM medium supplemented with 10% fetal bovine serum, 50 μg/ml hygromycin-B 2 mM glutamine, 100 U/ml penicillin, 100 μg/ml streptomycin and 250 μg/ml G418. Cells are harvested with trypsin-EDTA and counted using ViaCount reagent. The cell suspension volume is adjusted to 4.8×10^5 cells/ml with complete growth media. Aliquots of 25 μL are dispensed into 384 well Poly-D Lysine coated black/clear microplates (Falcon) and the microplates were placed in a 37° C. CO2 incubator overnight.
as §1, §2, §3

With “Ac-Ile-Ala-Pqa-Arg-His-Tyr-Leu-Asn-Leu-Val-Thr-Arg-Gln-Arg-Tyr-NH2 [Example 17]”, the results for the EC50 in test [1] and in test [2] were above 5000 nM and 3020 nM, respectively.
In the same order, the values of “Ac-2,2-Aic-Nle-Pqa-Arg-His-Tyr-Leu-Asn-Leu-Val-Thr-Arg-Gln-Arg-Tyr-NH2 [Example 69]” are above 5000 nM and above 5000 nM.
In the case of “H-Ile-Lys-Pqa-Arg-His-Trp-Leu-Asn-Leu-Val-Thr-Arg-Gln-Arg-Tyr-NH2 [Example 46]”, in test [2], the EC50 was above 5000 nM.
“H-Ile-Nle-Pqa-Arg-His-Tyr-Leu-Asn-Leu-Val-Thr-Arg-Gln-Arg-Tyr-NH2 [Example 43]”: in test [3], the IC50 is 0.096 nM. The EC50 in test [1] was 430 nM; in test [2], above 5000 nM.
Regarding “H-Ile-Lys-Pqa-Ala-His-Tyr-Leu-Asn-Leu-Val-Thr-Arg-Gln-Arg-Tyr-NH2 [Example 15]”, the concentration giving a half-maximal response (EC50) in test [1] is 3400 nM; in test [4], 25 nM; in test [2] it was above 5000 nM.
Regarding “H-Ile-Lys-Pqa-Arg-His-Tyr-Leu-Ala-Leu-Val-Thr-Arg-Gln-Arg-Tyr-NH2 [Example 11]”, the EC50 in test [1] and in test [2] was above 5000 nM throughout.
Consider “H-Ile-Lys-Pqa-Arg-(D)His-Tyr-Leu-Asn-Leu-Val-Thr-Arg-Gln-Arg-Tyr-NH2 [Example 27]”, for which, in test [3], the concentration for half-maximal inhibition (IC50) is 3.18 nM. For the same substance, in test [2], the EC50 is above 5000 nM.
As for “H-Ile-Lys-Pqa-Ala-His-Trp-Leu-Asn-Leu-Val-Thr-Arg-Gln-Arg-Tyr-NH2 [Example 47]”, the EC50 in test [2] is above 5000 nM.
In the case of “H-Ile-Lys-Pqa-Arg-His-Tyr-Leu-Asn-Leu-Val-Thr-Arg-Ala-Arg-Tyr-NH2 [Example 7]”, in test [3], the IC50 was 29 nM. Further, the EC50 in test [1] and in test [2] was above 5000 nM each time.
For “Ac-Ile-Nle-Pqa-Arg-His-Tic-Leu-Asn-Leu-Val-Thr-Arg-Gln-Arg-Tyr-NH2 [Example 54]”, the IC50 in test [3] was determined as 45 nM. For the same substance, the EC50 in test [1] and in test [2] was above 5000 nM in each case.
Turning to “H-Ile-Lys-Pqa-Arg-Ala-Tyr-Leu-Asn-Leu-Val-Thr-Arg-Gln-Arg-Tyr-NH2 [Example 14]”, in test [3], the IC50 stood at 0.062 nM. Further, the EC50 in test [1] and in test [2] was above 5000 nM throughout.
“Cyclo Lys28-Asp32 Ac-Ile-Nle-Pqa-Arg-His-Tyr-Lys-Asn-Leu-Val-Asp-Arg-Gln-Arg-Tyr-NH2 [Example 50]”: the EC50 in test [1] and in test [2] was above 5000 nM each time.
“H-NMeIle-Lys-Pqa-Arg-His-Tyr-Leu-Asn-Leu-Val-Thr-Arg-Gln-Arg-Tyr-NH2 [Example 42]”: the IC50 in test [3] was 0.12 nM. For the same substance, the EC50 in test [2] is above 5000 nM.
In the case of “Ac-Ile-Nle-Pqa-Arg-His-Dip-Leu-Asn-Leu-Val-Thr-Arg-Gln-Arg-Tyr-NH2 [Example 56]”, in test [2], the EC50 was above 5000 nM.
As for “H-Ile-Lys-Pqa-Arg-(NMe)His-Tyr-Leu-Asn-Leu-Val-Thr-Arg-Gln-Arg-Tyr-NH2 [Example 39]”, the EC50 was 3800 nM in test [1] and above 5000 nM in test [2].
As for “H-Ile-NMeLys-Pqa-Arg-His-Tyr-Leu-Asn-Leu-Val-Thr-Arg-Gln-Arg-Tyr-NH2 [Example 41]”, the IC50 in test [3] was determined as 0.19 nM. Besides, the EC50 in test [2] is above 5000 nM.
“Ac-Acp-Nle-Pqa-Arg-His-Tyr-Leu-Asn-Leu-Val-Thr-Arg-Gln-Arg-Tyr-NH2 [Example 71]”: the concentration for a half-maximal effect (EC50) in test [1] and in test [2] was above 5000 nM each time.
For “H-Ile-Lys-Pqa-Arg-His-Tyr-Leu-Asn-Leu-Val-Thr-(NMe)Arg-Gln-Arg-Tyr-NH2 [Example 33]”, the EC50 in test [1] and in test [2] was above 5000 nM each time.
In the case of “H-Ile-Lys-Pqa-Arg-His-Tyr-Leu-Asn-Leu-Ala-Thr-Arg-Gln-Arg-Tyr-NH2 [Example 9]”, the 50% inhibitory concentration (IC50) in test [3] stood at 0.21 nM. Besides, the EC50 in test [1] and in test [2] was above 5000 nM each time.
Regarding “Ac-Ile-Nle-Pqa-Arg-His-Bip-Leu-Asn-Leu-Val-Thr-Arg-Gln-Arg-Tyr-NH2 [Example 55]”, the half-maximal effective concentration (EC50) in test [2] is above 5000 nM.
Regarding “Ac-Ach-Nle-Pqa-Arg-His-Tyr-Leu-Asn-Leu-Val-Thr-Arg-Gln-Arg-Tyr-NH2 [Example 70]”, the EC50 in test [1] and in test [2] was above 5000 nM each time.
On to “Ac-Ile-Nle-Pqa-Arg-His-(2)Nal-Leu-Asn-Leu-Val-Thr-Arg-Gln-Arg-Tyr-NH2 [Example 58]”, for which the EC50 in test [1] was 870 nM; in test [2], above 5000 nM.
Regarding “Ac-Aib-Nle-Pqa-Arg-His-Tyr-Leu-Asn-Leu-Val-Thr-Arg-Gln-Arg-Tyr-NH2 [Example 66]”, the EC50 in test [2] is above 5000 nM.
For “H-Ile-Lys-Pqa-Arg-His-Tyr-Leu-Asn-Ala-Val-Thr-Arg-Gln-Arg-Tyr-NH2 [Example 10]”, the IC50 in test [3] came out at 0.25 nM. Further, the 50% effective concentration (EC50) in test [1] and in test [2] was above 5000 nM throughout.
For the substance “Ac-Ile-Nle-Pqa-Arg-His-(2,3,4,5,6 Penta fluoroPhe)-Leu-Asn-Leu-Val-Thr-Arg-Gln-Arg-Tyr-NH2 [Example 60]”, the EC50 in test [2] is above 5000 nM.
As to “Ac-Ile-Nle-Pqa-Arg-(4-Pal)-Tyr-Leu-Asn-Leu-Val-Thr-Arg-Gln-Arg-Tyr-NH2 [Example 63]”, in test [3], the IC50 is 0.099 nM. In addition, the concentration giving a half-maximal response (EC50) in test [1] and in test [2] was above 5000 nM each time.
Regarding “H-Ile-Lys-Pqa-Arg-His-Tyr-Leu-Asn-Leu-Val-Ala-Arg-Gln-Arg-Tyr-NH2 [Example 8]”, the EC50 in test [1] and in test [2] was above 5000 nM throughout.
For the substance “H-Ile-Lys-Pqa-Arg-His-Tyr-Leu-Asn-Leu-Val-(NMe)Thr-Arg-Gln-Arg-Tyr-NH2 [Example 34]”, the half-inhibitory concentration (IC50) in test [3] worked out at 89 nM. Further, the EC50 in test [1] and in test [2] was above 5000 nM in each case.
Consider “Ac-Ile-Nle-Pqa-(2,3,4,5,6 Penta fluoro Phe)-His Tyr-Leu-Asn-Leu-Val-Thr-Arg-Gln-Arg-Tyr-NH2 [Example 65]”, for which the EC50 in test [1] and in test [2] was above 5000 nM each time.
“H-Ile-Lys-Pqa-Arg-His-Tyr-(NMe)Leu-Asn-Leu-Val-Thr-Arg-Gln-Arg-Tyr-NH2 [Example 37]”: the EC50 in test [1] and in test [2] was above 5000 nM each time.
“H-Ile-Lys-Pqa-Arg-His-Ala-Leu-Asn-Leu-Val-Thr-Arg-Gln-Arg-Tyr-NH2 [Example 13]”: the EC50 in test [1] and in test [2] was above 5000 nM in each case.
For the substance “Ac-Ile-Nle-Pqa-Phe-His-Tyr-Leu-Asn-Leu-Val-Thr-Arg-Gln-Arg-Tyr-NH2 [Example 45]”, the EC50 in test [1] and in test [2] was above 5000 nM in each case.
As to “H-Ile-Lys-Pqa-Arg-His-Tyr-Ala-Asn-Leu-Val-Thr-Arg-Gln-Arg-Tyr-NH2 [Example 12]”, the EC50 in test [1] and in test [2] was above 5000 nM in each case.
With “Ac-Ile-Nle-Pqa-Arg-(4-MeOApc)-Tyr-Leu-Asn-Leu-Val-Thr-Arg-Gln-Arg-Tyr-NH2 [Example 61]”, the IC50 in test [3] is 7.8 nM. Besides, the EC50 in test [1] and in test [2] was above 5000 nM each time.
For “H-Ile-Ala-Pqa-Arg-His-Tyr-Leu-Asn-Leu-Val-Thr-Arg-Gln-Arg-Tyr-NH2 [Example 16]”, the IC50 in test [3] was determined as 0.079 nM. For the same substance, the EC50 in test [1] was 1000 nM; in test [2], above 5000 nM.
For the substance “Ac-Ile-Nle-Pqa-Arg-(3-Pal)-Tyr-Leu-Asn-Leu-Val-Thr-Arg-Gln-Arg-Tyr-NH2 [Example 62]”, the EC50 was 5.6 nM in test [4] and above 5000 nM in test [2].
In the same order, the values of “Ac-Ile-Nle-Pqa-Arg-His-(1)Nal-Leu-Asn-Leu-Val-Thr-Arg-Gln-Arg-Tyr-NH2 [Example 57]” are 13 nM and above 5000 nM.
For the substance “Ac-Ile-Nle-Pqa-Arg-His-(3,4,5trifluorPhe)-Leu-Asn-Leu-Val-Thr-Arg-Gln-Arg-Tyr-NH2 [Example 59]”, in test [2], the EC50 is above 5000 nM.

Broadly, the EC50 is the midpoint of the concentration-response curve. In general, IC50 refers to the concentration that gives 50% inhibition.
